Type in all cases: cell-based
For assay [1], the target named is T1, Endothelin receptor type B (Homo sapiens, UniProt P24530).
T1 sequence (P24530 whole entry): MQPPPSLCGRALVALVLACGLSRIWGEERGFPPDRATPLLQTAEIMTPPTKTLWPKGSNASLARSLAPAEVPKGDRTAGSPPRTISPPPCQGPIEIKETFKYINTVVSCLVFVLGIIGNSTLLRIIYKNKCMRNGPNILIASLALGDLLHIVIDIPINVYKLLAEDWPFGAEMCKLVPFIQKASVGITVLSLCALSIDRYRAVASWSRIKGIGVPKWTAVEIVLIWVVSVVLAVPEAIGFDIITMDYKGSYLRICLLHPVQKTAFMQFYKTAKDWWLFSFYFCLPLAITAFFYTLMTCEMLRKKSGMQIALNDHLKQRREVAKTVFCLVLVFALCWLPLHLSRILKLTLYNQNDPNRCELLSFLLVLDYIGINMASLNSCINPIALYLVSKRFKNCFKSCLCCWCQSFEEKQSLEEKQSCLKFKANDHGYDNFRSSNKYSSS
Kind of assay: Tested for binding affinity for human Endothelin B receptor by measuring its ability to displace [125I]-ET-3 from chinese hamster ovary cells(CHO). The gist of the method:
(§1)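 Membranes from CHO cells stably transfected with human ETA or ETB, made in Hepes/sucrose with protease inhibitors by differential centrifugation. 0.02 mg membrane incubated 3 h at 25 °C with 0.1 nM [125I]ET-1 (ETA) or [125I]ET-3 (ETB) and test compound, 11 concentrations 10^-10 to 10^-5. Filtration read-out; nonspecific binding with 1 µM ET-1; IC50 from at least two duplicate determinations.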

Protein sequences, listed by entry. Tags and fused reporters are not part of them.
UniProt P25101, whole entry: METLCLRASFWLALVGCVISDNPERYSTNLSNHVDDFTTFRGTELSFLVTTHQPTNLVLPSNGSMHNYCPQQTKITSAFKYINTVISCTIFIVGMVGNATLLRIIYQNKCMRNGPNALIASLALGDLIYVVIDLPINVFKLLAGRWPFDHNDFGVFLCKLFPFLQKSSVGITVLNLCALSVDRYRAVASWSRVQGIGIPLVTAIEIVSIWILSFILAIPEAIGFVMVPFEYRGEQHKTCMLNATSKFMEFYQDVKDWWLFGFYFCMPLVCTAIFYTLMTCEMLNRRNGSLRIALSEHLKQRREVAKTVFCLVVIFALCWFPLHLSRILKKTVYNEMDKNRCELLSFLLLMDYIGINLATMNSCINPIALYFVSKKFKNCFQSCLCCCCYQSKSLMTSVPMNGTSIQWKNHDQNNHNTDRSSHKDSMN

In assay [2] the target is T1, Endothelin receptor type B. Kind of assay: Tested for binding affinity for human Endothelin B receptor by measuring its ability to displace [125I]ET-3 from chinese hamster ovary cells(CHO). The gist of the method:
as §1

The target in assay [3] is T2, Endothelin-1 receptor (Homo sapiens, UniProt P25101). Put plainly: Tested for binding affinity for human Endothelin A receptor by measuring its ability to displace [125I]-ET-1 from chinese hamster ovary cells(CHO).
The target in assay [4] is T2, Endothelin-1 receptor. Kind of assay: Tested for binding affinity for human Endothelin A receptor by measuring its ability to displace [125I]ET1 from chinese hamster ovary cells(CHO). In short, it runs like this:
as §1

What is called Ki is the equilibrium dissociation constant of an inhibitor or competing ligand from its target. A lower Ki goes with tighter binding. The IC50 is the concentration that gives 50% inhibition. A higher IC50 goes with weaker potency in that assay. As to `CCCCN(CCCC)C(=O)CN1C[C@H](c2cc(OC)c3c(c2)OCO3)[C@@H](C(=O)O)[C@@H]1CC(C)(C)CCC` [ABT-546], the Ki in assay [1] is 13 µM; on Endothelin-1 receptor [3] it was 0.00046 µM. The IC50 came out at 15.4 µM in assay [2] and 0.00049 µM on Endothelin-1 receptor [4].
